Earlier results, collected in patent publication US20180353175A1, “Surgical Fastener with Broad Spectrum MMP Inhibitors” (Ethicon LLC, priority 2017, published 2018).

By UniProt entry, the sequences of proteins in these tests, tags left out. Residues count along the entry.
UniProt P22894, 101-467, species assumed: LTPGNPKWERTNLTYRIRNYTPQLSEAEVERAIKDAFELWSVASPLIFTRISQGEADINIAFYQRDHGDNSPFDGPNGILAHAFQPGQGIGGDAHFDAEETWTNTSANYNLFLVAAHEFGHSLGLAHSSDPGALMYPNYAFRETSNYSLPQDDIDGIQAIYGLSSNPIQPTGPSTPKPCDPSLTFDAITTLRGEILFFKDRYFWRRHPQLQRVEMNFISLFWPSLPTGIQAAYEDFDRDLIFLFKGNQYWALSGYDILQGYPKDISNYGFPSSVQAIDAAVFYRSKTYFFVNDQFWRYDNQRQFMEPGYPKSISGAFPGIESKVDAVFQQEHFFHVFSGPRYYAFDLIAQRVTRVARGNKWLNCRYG

What was measured:
[1] = target: T1, MMP1 (Homo sapiens, UniProt P03956)
T1 sequence (P03956 100-469): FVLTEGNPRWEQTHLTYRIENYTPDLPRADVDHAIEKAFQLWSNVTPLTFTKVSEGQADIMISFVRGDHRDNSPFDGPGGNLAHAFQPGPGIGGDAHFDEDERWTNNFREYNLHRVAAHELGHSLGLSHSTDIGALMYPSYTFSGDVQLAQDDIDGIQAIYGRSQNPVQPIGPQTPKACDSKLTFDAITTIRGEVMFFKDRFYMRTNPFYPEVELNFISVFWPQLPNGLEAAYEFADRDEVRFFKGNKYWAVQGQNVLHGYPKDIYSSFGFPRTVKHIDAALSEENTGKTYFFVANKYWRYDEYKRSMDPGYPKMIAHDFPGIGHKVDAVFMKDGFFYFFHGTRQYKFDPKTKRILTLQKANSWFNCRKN

[2] = target: MMP8 (Homo sapiens, UniProt P22894)

In the case of `COc1ccc(S(=O)(=O)N(Cc2cccnc2)C(C(=O)NO)C(C)C)cc1` (centres unmarked) [CGS-27023-A], the IC50 [1] is given as 33 nM and the IC50 [2] is given as 8 nM.
